Reference: PubChem BioAssay AID602393 (Broad Institute, 2012)
Only a part is listed here, and it is no random draw. Some structures show a salt or complex split into parts, the way the source records it. Active and inactive are the calls of the source. Cut-off read from the data, not from the text of the source: active = activation above about 40%; inconclusive = no clear call, values can overlap the other calls; inactive = below that.

Assay: Bmi1 luciferase reporter increase in mESCs, primary screen, esBAF inhibitor project, mouse ES cells, Bmi1 luciferase knock-in, single point (AID 602393);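 note: 0% = median of the plate's neutral control wells and 100% = double that signal; a rise in the Bmi1 reporter signal indicates esBAF inhibition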
Details: 24 h, at 12.5 µM, hits give high values, 100% = twice the neutral-well signal
In the case of `CN(Cc1cccnc1)C(=O)COc1ccc(Cl)c(Cl)c1.O=[N+]([O-])c1cc([N+](=O)[O-])c(O)c([N+](=O)[O-])c1`, the reporter increase is reported as inactive: -7.04%. For `O=[N+]([O-])c1cc([N+](=O)[O-])c(-n2nnc3ccccc32)c([N+](=O)[O-])c1`, the reporter increase was inactive: -4.2%. For `Cc1nc2ccc3ccccc3c2s1.O=[N+]([O-])c1cc([N+](=O)[O-])c(O)c([N+](=O)[O-])c1`, the reporter increase was inactive: 16.9%. In the case of `O=[N+]([O-])c1cc([N+](=O)[O-])c(Nc2nnnn2CCO)c([N+](=O)[O-])c1`, the reporter increase is reported as inactive: 6.9%. With `CC1=C2N=C(C=C3N=C(C(C)=C4[N-][C@@](C)([C@@H]5N=C1[C@](C)(CCC(=O)NC[C@@H](C)OP(=O)([O-])O[C@H]1[C@@H](O)[C@@H](n6cnc7cc(C)c(C)cc76)O[C@@H]1CO)[C@H]5CC(N)=O)[C@@](C)(CC(N)=O)[C@@H]4CCC(N)=O)[C@@](C)(CC(N)=O)[C@@H]3CCC(N)=O)C(C)(C)[C@@H]2CCC(N)=O.[C-]#N.[Co+3]` the reporter increase was inactive: -17.3%. For `CCCOc1ccc(NP(C)(=O)Oc2ccc(Cl)cc2)cc1` (stereo not given), the reporter increase was inactive: -3.94%. With `CN1CCCCC1COC(=O)C1(O)c2ccccc2CCc2ccccc21` (stereo not given) the reporter increase was inactive: 11.2%. With `COc1ccccc1OP(C)(=O)Nc1c(C)cccc1C` (stereo not given) the reporter increase was inactive: -6.87%. In the case of `O=C(O)c1cccc(Nc2c([N+](=O)[O-])cc([N+](=O)[O-])cc2[N+](=O)[O-])c1`, the reporter increase is reported as inactive: -9.87%. For `CC1=NCCc2c1[nH]c1ccccc21.O=[N+]([O-])c1cc([N+](=O)[O-])c(O)c([N+](=O)[O-])c1`, the reporter increase was inactive: -5.05%. With `Cc1cc(C)cc(OP(C)(=O)Nc2ccc(C)cc2C)c1` (stereo not given) the reporter increase was inactive: 4.64%. For `COc1ccccc1OP(C)(=O)Nc1cccc(Br)c1` (stereo not given), the reporter increase was inactive: 2.8%. For `Cc1ccc(C)c(NP(C)(=O)Oc2ccccc2)c1` (stereo not given), the reporter increase was inactive: -3.25%. With `Cc1cc(C)cc(OP(C)(=O)Nc2ccccn2)c1` (stereo not given) the reporter increase was inactive: -1.58%. With `O=[N+]([O-])c1cc([N+](=O)[O-])c(Nc2cccnc2)c([N+](=O)[O-])c1` the reporter increase was inactive: -2.84%. In the case of `Cc1cc(C)cc(OP(C)(N)=O)c1` (stereo not given), the reporter increase is reported as inactive: -4.11%. For `COc1ccccc1OP(C)(=O)Nc1cc(Cl)ccc1C` (stereo not given), the reporter increase was inactive: -6.4%. In the case of `COc1ccc(OP(C)(=O)Nc2cccc(F)c2)cc1` (stereo not given), the reporter increase is reported as inactive: -17.2%. For `Cc1ccc(NP(C)(=O)Oc2ccccc2)c(C)c1` (stereo not given), the reporter increase was inactive: -1.99%. For `CCOC(=O)c1ccc(NP(C)(=O)Oc2ccccc2)cc1` (stereo not given), the reporter increase was inactive: -3.94%. In the case of `CP(=S)(Nn1cnnc1)Oc1ccccc1` (stereo not given), the reporter increase is reported as inactive: -4.34%. With `CP(=O)(NC(=O)Nc1ccccc1)Oc1ccccc1` (stereo not given) the reporter increase was inactive: 6.09%. With `Cc1ccc(Nc2c([N+](=O)[O-])cc([N+](=O)[O-])cc2[N+](=O)[O-])cc1` the reporter increase was inactive: -9.44%. In the case of `CP(=O)(Oc1ccccc1)OC(c1ccccc1)C(F)(F)F` (stereo not given), the reporter increase is reported as inactive: 0.968%. In the case of `CP(=O)(Nc1ccccn1)Oc1ccc(Cl)cc1` (stereo not given), the reporter increase is reported as inactive: 7.68%. For `CCOP(C)(=S)SCC(=O)NC(C)C(=O)O` (stereo not given), the reporter increase was inactive: -1.57%. For `COc1ccccc1OP(C)(=O)Nc1c(C)n(C)n(-c2ccccc2)c1=O` (stereo not given), the reporter increase was inactive: -5.75%. In the case of `O=C(OCCCN1CCCC1)C(O)(c1ccccc1)C1CCCCC1` (stereo not given), the reporter increase is reported as inactive: -4.9%. For `CP(=O)(Oc1ccccc1)N1CCOC1=O` (stereo not given), the reporter increase was inactive: 4.16%. With `CCc1ccc(OP(C)(=O)Nc2cccnc2)cc1` (stereo not given) the reporter increase was inactive: -8.39%. For `COc1ccc(OP(C)(=O)Nc2ccc(Br)cc2)cc1` (stereo not given), the reporter increase was inactive: -4.57%. For `CC(C)(C)c1ccc(OP(C)(=O)O)cc1`, the reporter increase was inactive: -1.92%. For `COc1ccccc1OP(C)(=O)Nc1ccccc1Br` (stereo not given), the reporter increase was inactive: -6.4%. For `CP(=O)(Nc1ccc(Cl)cc1)Oc1ccc(F)cc1` (stereo not given), the reporter increase was inactive: -5.17%. For `CP(=O)(OC12CC3CC(CC(C3)C1)C2)OC12CC3CC(CC(C3)C1)C2`, the reporter increase was inactive: 1.76%. In the case of `COc1ccccc1OP(C)(=O)Nc1ccc(C)c(C)c1` (stereo not given), the reporter increase is reported as inactive: 1.71%. With `CP(=O)(Nc1ccc(Cl)cc1Cl)Oc1ccccc1` (stereo not given) the reporter increase was inactive: 1.62%. For `COc1ccc(OP(C)(=O)Nc2ccccn2)cc1` (stereo not given), the reporter increase was inactive: -0.799%. In the case of `CN(C)CCOC(=O)C(O)(c1ccccc1)C1CCCC1` (stereo not given), the reporter increase is reported as inactive: -7.18%. In the case of `COc1ccccc1OP(C)(=O)Nc1ccc(Br)cc1` (stereo not given), the reporter increase is reported as inactive: -1.73%. For `CP(=O)(Nc1ccccn1)Oc1ccccc1` (stereo not given), the reporter increase was inactive: -6.41%. For `COc1ccccc1OP(C)(=O)Nc1ccc(C)cc1C` (stereo not given), the reporter increase was inactive: -1.1%. With `CCc1ccc(OP(C)(=O)O)cc1` the reporter increase was inactive: -5.6%. In the case of `O=[N+]([O-])c1cc([N+](=O)[O-])c(Nc2ccccn2)c([N+](=O)[O-])c1`, the reporter increase is reported as inactive: -9.36%. With `Cc1c(NP(C)(=O)Oc2ccc(C(C)C)cc2)c(=O)n(-c2ccccc2)n1C` (stereo not given) the reporter increase was inactive: -2.64%. In the case of `CP(=O)(Nc1ccccc1F)Oc1ccccc1` (stereo not given), the reporter increase is reported as inactive: 0.347%. In the case of `O=[N+]([O-])c1cc([N+](=O)[O-])c(Nc2ccc(Cl)cc2)c([N+](=O)[O-])c1`, the reporter increase is reported as inactive: -30.7%. In the case of `COc1ccc2c(c1O)-c1c(O)c(OC)cc3c1[C@H](C2)[N+](C)(C)CC3.O=[N+]([O-])c1cc([N+](=O)[O-])c([O-])c([N+](=O)[O-])c1[O-]`, the reporter increase is reported as inactive: 11.6%. With `CP(=O)(Nc1ccccc1)Oc1ccc(F)cc1` (stereo not given) the reporter increase was inactive: -7.2%. With `O=[N+]([O-])c1cc([N+](=O)[O-])c(OC2CCCCC2O)c([N+](=O)[O-])c1` (stereo not given) the reporter increase was inactive: 8.17%. With `Cc1c([N+](=O)[O-])cc([N+](=O)[O-])c(Br)c1[N+](=O)[O-]` the reporter increase was inactive: -0.0075%. With `COc1ccc(NP(C)(=O)Oc2ccccc2OC)cc1` (stereo not given) the reporter increase was inactive: 3.77%. With `COc1ccc(OP(C)(=O)Nc2cccc(Br)c2)cc1` (stereo not given) the reporter increase was inactive: 11.7%. With `Cc1c(C(c2ccc3c(c2)OCO3)c2c(C)n(C)n(-c3ccccc3)c2=O)c(=O)n(-c2ccccc2)n1C.O=[N+]([O-])c1cc([N+](=O)[O-])c(O)c([N+](=O)[O-])c1` the reporter increase was inactive: -4.08%. With `O=[N+]([O-])c1ccc(OP2(=O)COCCO2)cc1` (stereo not given) the reporter increase was inactive: -3.75%. In the case of `Cc1cc(-c2cccc3ccccc23)c(C)cn1.O=[N+]([O-])c1cc([N+](=O)[O-])c(O)c([N+](=O)[O-])c1`, the reporter increase is reported as inactive: 9.32%. For `CCOP(C)(=S)SCC(=O)NC(C)(CC)C(=O)O` (stereo not given), the reporter increase was inactive: -2.9%. In the case of `CP(=O)(Nc1ccc(SC(F)(F)F)cc1)Oc1ccc(F)cc1` (stereo not given), the reporter increase is reported as inactive: 5.31%. With `Cc1ccccc1NP(C)(=O)Nc1ccccc1C` the reporter increase was inactive: -0.662%. In the case of `CP(=O)(Nc1ccc2c(c1)OCCO2)Oc1ccccc1` (stereo not given), the reporter increase is reported as inactive: -1.51%.
